Usually Emax stands for the maximal effect, on the per cent scale that the assay sets.

The chains behind the UniProt entries cited, without tags or fusion partners.
UniProt P41146, whole entry: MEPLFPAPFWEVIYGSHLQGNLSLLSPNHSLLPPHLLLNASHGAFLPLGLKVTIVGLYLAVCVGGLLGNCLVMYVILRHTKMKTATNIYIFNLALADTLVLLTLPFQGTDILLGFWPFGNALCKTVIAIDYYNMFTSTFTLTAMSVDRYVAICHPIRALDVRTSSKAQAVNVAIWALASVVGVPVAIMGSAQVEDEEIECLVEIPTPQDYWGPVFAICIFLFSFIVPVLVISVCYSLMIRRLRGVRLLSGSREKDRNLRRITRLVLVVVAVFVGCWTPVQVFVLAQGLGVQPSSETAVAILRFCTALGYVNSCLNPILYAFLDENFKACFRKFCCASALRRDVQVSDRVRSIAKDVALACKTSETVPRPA

The values below come from ChEMBL document CHEMBL1137888, “1,3-Dihydro-2,1,3-benzothiadiazol-2,2-diones and 3,4-dihydro-1H-2,1,3-benzothidiazin-2,2-diones as ligands for the NOP receptor” (2004).

Several values for one entry are separate records, joined by “and”; a condition that tells them apart may be missing. Equal values may be shown once.

In this assay the target is Nociceptin receptor (Homo sapiens) (UniProt P41146). Nature of the assay: Agonist activity as maximal effect in [35S]-GTP-gamma binding assay compared to 60 nM N/OFQ.

In the case of `CC(C)C1CCC(N2CCC(N3c4ccccc4CNS3(=O)=O)CC2)CC1` (centres undefined), the Emax is 92% and 99% and 93%.
The figure for `CC(C)CCC(C)N1CCC(N2c3ccccc3CNS2(=O)=O)CC1` (centres undefined) is 84%.
The figure for `CCCCN1Cc2ccccc2N(C2CCN(C3CCC(C(C)C)CC3)CC2)S1(=O)=O` (centres undefined) is 94%; for `CC(C)C1CCC(N2CCC(N3c4ccccc4CN(CCO)S3(=O)=O)CC2)CC1` (centres undefined) it is 95%.
